Test results from the SangsterLogP compilation.

O=C(O)C(O)c1ccccc1 (stereo unspecified)
logP: 0.64
